According to patent US20240116898A1, “NOVEL GLUTAMINYL CYCLASE INHIBITORS AND THE USE THEREOF IN TREATMENT OF VARIOUS DISEASES” (LTD "VALENTA-INTELLEKT", priority 2017, published 2024):

Legend:
[1] = tested on: thermal pain irritation hot plate in Balb/c mice
[2] = tested on: carrageenan air pouch in Balb/c mice
[3] = tested on: diabetic nephropathy in rats; test: Rat model of diabetic nephropathy (high-fat diet and streptozotocin), urine analysis; assay type: in vivo; conditions: 5 mg/kg in table (50 mg/kg in text), after 6 weeks of intragastric administration
[4] = tested on: adjuvant arthritis in rats; conditions: 0.5 mg/kg
[5] = tested on: imiquimod-induced psoriasis in Balb/c mice; conditions: 0.3 mg/kg intragastric daily
[6] = tested on: thioglycolate peritonitis in balb/c mice; conditions: 1 mg/kg intragastric, 72 hours
[7] = tested on: bleomycin-induced acute lung injury in mice; conditions: 24 h after bleomycin
[8] = tested on: atopic dermatitis in balb/c mice; conditions: 3 mg/kg intragastric day 8-17
[9] = tested on: carrageenan-induced rat paw edema; test: Carrageenan-induced rat paw edema; assay type: in vivo; conditions: 2 hours after carrageenan
Procedure: Experiments were performed on male white nonlinear rats weighing 250-270 g.

[10] = tested on: specific pain reaction by chemical irritation of the peritoneum in Balb/c mice; test: Abdominal constriction test (acetic acid) in mice
[11] = tested on: allergic rhinitis in guinea pigs; test: Guinea pig model of allergic rhinitis (ovalbumin)
[12] = tested on: LPS-induced acute lung injury in rats; conditions: 1.8 mg/kg intragastric twice, 48 h after LPS
[13] = 3 mg/kg intragastric, 48 hours after carrageenan

In the case of `O=C(NCCc1c[nH]cn1)c1cccc(C(=O)NCCc2c[nH]cn2)c1` [Compound II, N,N′-bis[2-(1H-imidazol-4-yl)ethyl]isophthalamide], the “The threshold of pain sensitivity (TPS), after 1 hour” value (“The threshold of pain sensitivity” below) ([1]; 0.3 mg/kg intragastric) is reported as 97.43 ± 6.43 % to the background, the “The threshold of pain sensitivity” value ([1]; 3 mg/kg intragastric) is reported as 90.54 ± 6.59 % to the background and the “The threshold of pain sensitivity” value ([1]; 30 mg/kg intragastric) is reported as 110.18 ± 11.9 % to the background. The “Reduction of the influx of leukocytes and macrophages” value ([2]; 3 mg/kg) was 10 times, the “Leukocytes in the exudate from the carrageenan pouch” value [2, 13] was 1.0 ± 0.1 & × 10^9/1 and the “Macrophages in the exudate from the carrageenan pouch” value [2, 13] was 0.5 ± 0.1 & × 10^9/1. The ACR [3] was 202.3 ± 26.8 & protein(μg/l)/creatinine (mg/l, the Daily protein [3] was 1846.3 ± 337.6 μg/18 h and the Dieresis [3] was 7.45 ± 1.0 ml/18 h. The “The gain of the volume of the affected paw” value ([4]; Day 14) was 118.8 ± 3.6 % to the initial level, the “The gain of the volume of the contralateral paw” value ([4]; Day 14) was 5.39 ± 1.67 % to the initial level and the “The gain of the volume of the affected paw” value ([4]; Day 16) was 105 ± 3.2 % to the initial level. The “The gain of the volume of the contralateral paw” value ([4]; Day 16) was 6.75 ± 1.58 % to the initial level, the “The gain of the volume of the affected paw” value ([4]; Day 18) was 104.4 ± 2.7*& % to the initial level and the “The gain of the volume of the contralateral paw” value ([4]; Day 18) was 18.48 ± 1 % to the initial level. The “The gain of the volume of the affected paw” value ([4]; Day 21) was 86.3 ± 3.9*& % to the initial level, the “The gain of the volume of the contralateral paw” value ([4]; Day 21) was 19.77 ± 1.67*& % to the initial level and the “The gain of the volume of the affected paw” value ([4]; Day 25) was 88.5 ± 2.4*& % to the initial level. The “The gain of the volume of the contralateral paw” value ([4]; Day 25) was 15.45 ± 1.21*& % to the initial level, the “The gain of the volume of the affected paw” value ([4]; Day 28) was 86.9 ± 2.3*& % to the initial level and the “The gain of the volume of the contralateral paw” value ([4]; Day 28) was 14.04 ± 1.75*& % to the initial level. The “The gain of the volume of the affected paw” value ([4]; Day 30) was 83.2 ± 2.2*& % to the initial level, the “The gain of the volume of the contralateral paw” value ([4]; Day 30) was 13.02 ± 0.94*& % to the initial level and the “The gain of the thickness of the affected ear to day 0” value (“The gain of the thickness … to day 0” for short) ([5]; Day 3) was 35.3 ± 2.1 %. For the same compound, the “The gain of the thickness … to day 0” value ([5]; Day 4) was 48.1 ± 2.8*& %, the “The gain of the thickness … to day 0” value ([5]; Day 5) was 59.6 ± 4.5*& % and the “The gain of the thickness … to day 0” value ([5]; Day 6) was 70.6 ± 4.4*& %. For the same compound, the “Leukocytes in the exudate from the abdominal cavity” value [6] was 1.97 ± 0.36*& × 10^9/1, the “Monocytes in the exudate from the abdominal cavity” value [6] was 0.65 ± 0.12& × 10^9/1 and the “Eosinophils in 1 μl of the bronchoalveolar lavage” value (from here on “Eosinophils in 1 μl”) ([7]; 3 mg/kg intragastric twice) was 0.00 ± 0.00 in 1 μl. For the same compound, the “Leukocytes in 1 μl of the bronchoalveolar lavage” value (“Leukocytes in 1 μl” below) ([7]; 3 mg/kg intragastric twice) was 122.34 ± 15.96 & in 1 μl, the “Lymphocytes in 1 μl of the bronchoalveolar lavage” value (from here on “Lymphocytes in 1 μl”) ([7]; 3 mg/kg intragastric twice) was 0.00 ± 0.00 in 1 μl and the “Macrophages in 1 μl of the bronchoalveolar lavage” value (“Macrophages in 1 μl” below) ([7]; 3 mg/kg intragastric twice) was 39.57 ± 7.91*& in 1 μl. For the same compound, the “Neutropils in 1 μl of the bronchoalveolar lavage” value ([7]; 3 mg/kg intragastric twice) was 82.77 ± 16.87 *& in 1 μl, the “Eosinophils in 1 μl” value ([7]; 30 mg/kg intragastric twice) was 0.00 ± 0.00 in 1 μl and the “Leukocytes in 1 μl” value ([7]; 30 mg/kg intragastric twice) was 199.12 ± 46.59 & in 1 μl. The “Lymphocytes in 1 μl” value ([7]; 30 mg/kg intragastric twice) was 0.00 ± 0.00 in 1 μl, the “Macrophages in 1 μl” value ([7]; 30 mg/kg intragastric twice) was 143.90 ± 39.26 in 1 μl and the “Neutropils in 1 μl of the bronchoalveolar lavage” value ([7]; 30 mg/kg intragastric twice) was 55.21 ± 12.53*& in 1 μl. The Reaction index [8] was 38.1 ± 7.7*& %, the “The difference between the mass of the experiment and control ear” value [8] was 0.013 ± 0.002*& mg and the “Inhibition of edema growth” value ([9]; 0.18 mg/kg intragastric) was 34%. For the same compound, the “Inhibition of edema growth” value ([9]; 1.8 mg/kg intragastric) was 34%.

For `O=C(CC(=O)NCCc1cnc[nH]1)NCCc1cnc[nH]1` [Compound IV, N,N′-bis[2-(1H-imidazol-4-yl)ethyl]malonamide], the “Quantity of constrictions for 15 minutes” value ([10]; 0.03 mg/kg intragastric 1 hour before acetic acid) was 23.60 ± 2.54, the “Quantity of constrictions for 15 minutes” value ([10]; 0.3 mg/kg intragastric 1 hour before acetic acid) was 15.50 ± 2.63 and the “Quantity of constrictions for 15 minutes” value ([10]; 3 mg/kg intragastric 1 hour before acetic acid) was 19.20 ± 3.43. The “Quantity of constrictions for 15 minutes” value ([10]; 30 mg/kg intragastric 1 hour before acetic acid) was 15.30 ± 3.10, the “A quantity of scratchings of the nose/2 hours” value ([11]; 0.14 mg/kg intragastric once) was 5.3 ± 1.14 /2 hours and the “A quantity of sneezes/2 hours” value ([11]; 0.14 mg/kg intragastric once) was 1.4 ± 0.67& /2 hours. The “A quantity of scratchings of the nose/2 hours” value ([11]; 1.4 mg/kg intragastric once) was 1.8 ± 1& /2 hours, the “A quantity of sneezes/2 hours” value ([11]; 1.4 mg/kg intragastric once) was 1.4 ± 0.6& /2 hours and the “Eosinophils in 1 μl” value [12] was 0 ± 0 in 1 μl. The “Leukocytes in 1 μl” value [12] was 4485 ± 815 & in 1 μl, the “Lymphocytes in 1 μl” value [12] was 0 ± 0 in 1 μl and the “Macrophages in 1 μl” value [12] was 3699 ± 653& in 1 μl. For the same compound, the “Neutrophils in 1 μl of the bronchoalveolar lavage” value [12] was 785 ± 181& in 1 μl.

Like-named read-outs stand apart in the source and are kept apart here.
